# Antibody variant affinities, Ab-14 light chain, assay B

Target: peptide PDVDLGDISGINAS, taken from heptad repeat 2 (HR2) of SARS-CoV-2 spike.

Each scFv is VH, a 15-residue (Gly4Ser)3 linker, VL, as in the parent Ab-14, and differs from it in the CDRs of the light chain only.
VH: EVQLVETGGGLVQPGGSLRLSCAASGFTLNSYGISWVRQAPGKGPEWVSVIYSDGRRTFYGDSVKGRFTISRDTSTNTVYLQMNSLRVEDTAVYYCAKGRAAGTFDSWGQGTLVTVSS
VL: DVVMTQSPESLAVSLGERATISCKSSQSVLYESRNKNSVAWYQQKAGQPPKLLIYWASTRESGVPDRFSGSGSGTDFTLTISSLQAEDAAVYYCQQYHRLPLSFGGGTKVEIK

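These sequences belong to a second round, designed from the earlier measurements on random variants of the parent. Group labels follow the data file (Ctrl: baseline library sampled from a position-specific scoring matrix, with some repeated check sequences; En: ensemble of fine-tuned language models; GP: Gaussian process model; HC: hill climbing; Gen: genetic algorithm; Gibbs: Gibbs sampling; a sequence that several methods proposed may carry one label only). Affinity was read by AlphaSeq, a pooled yeast mating assay with surface-displayed partners. Binding brings cells together so that they mate, and sequencing counts the barcode pairs among the diploids. Scores were corrected for input abundance and mapped to Kd with protein pairs of known affinity run in the same pool. Mating was done six times.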

Variants are written as CDR1, CDR2 and CDR3 of the light chain (limits as in the source). Parent: KSSQSVLYESRNKNSVA, WASTRES, QQYHRLPLS. Kd is apparent (estimated from mating counts) and averaged on the log scale over replicates with a signal. Smaller is tighter. Where no diploid with the target was found in any replicate, the entry reads "not detected": below detection, most likely a poor binder, though not proof of it. Entries are sorted by rising average, undetected variants last. The parent sequence was in this pool as ten entries: three were never detected, three once, and four in most replicates, with averages from 2.2 nM to 240 nM.

{"CDR-L1": "KLSQSCLYESRNKNSVA", "CDR-L2": "DASTRES", "CDR-L3": "QQYHRLPLS", "group": "GP_Gen", "apparent Kd": "330 pM", "detected": "6 of 6"}
{"CDR-L1": "SLSQSVLYESRNKNSVA", "CDR-L2": "MASTRES", "CDR-L3": "QQYHRLPLS", "group": "GP_HC", "apparent Kd": "540 pM", "detected": "6 of 6"}
{"CDR-L1": "KLRQSMLYESRNQNSVA", "CDR-L2": "NASTRES", "CDR-L3": "QQYHRLPLS", "group": "GP_HC", "apparent Kd": "560 pM", "detected": "6 of 6"}
{"CDR-L1": "QLGKNQVGETLMQHAIA", "CDR-L2": "HDALRAD", "CDR-L3": "QQYFRLPLL", "group": "En_Gibbs", "apparent Kd": "1.6 nM", "detected": "6 of 6"}
{"CDR-L1": "KSSQSDDYESRNKNSVA", "CDR-L2": "AASTRES", "CDR-L3": "QQYHRLPLS", "group": "Ctrl", "apparent Kd": "2.4 nM", "detected": "6 of 6"}
{"CDR-L1": "QLATEVHDNAKLRNSIA", "CDR-L2": "ENELRAM", "CDR-L3": "QQYFMLPLS", "group": "En_Gibbs", "apparent Kd": "2.5 nM", "detected": "6 of 6"}
{"CDR-L1": "NLSWKQSGFENEWMAVA", "CDR-L2": "NTSERNA", "CDR-L3": "QQYARLPLS", "group": "En_Gibbs", "apparent Kd": "3.3 nM", "detected": "6 of 6"}
{"CDR-L1": "KFSQKVLYEHRTKNSVA", "CDR-L2": "NGSTRES", "CDR-L3": "QQYHRLPLS", "group": "GP_HC", "apparent Kd": "4.0 nM", "detected": "6 of 6"}
{"CDR-L1": "MISNVMNTLTRYGNNVA", "CDR-L2": "DLQEREE", "CDR-L3": "QQYFRLPLS", "group": "En_Gen", "apparent Kd": "4.9 nM", "detected": "6 of 6"}
{"CDR-L1": "MVNGIMDHLSKQTNNVA", "CDR-L2": "EQTTREE", "CDR-L3": "QQYDRLPLS", "group": "En_Gen", "apparent Kd": "5.6 nM", "detected": "6 of 6"}
{"CDR-L1": "MISQIYNMGQFAINSVA", "CDR-L2": "QASIRNA", "CDR-L3": "QQYDRLPLM", "group": "En_Gen", "apparent Kd": "6.7 nM", "detected": "6 of 6"}
{"CDR-L1": "KIGMVLNQHLHQKNNVA", "CDR-L2": "DLVERVN", "CDR-L3": "QQYHRLPLS", "group": "En_Gen", "apparent Kd": "6.8 nM", "detected": "6 of 6"}
{"CDR-L1": "QMKASLLQGIYIKDSVA", "CDR-L2": "QSDIREL", "CDR-L3": "QQYEHLPLS", "group": "En_Gibbs", "apparent Kd": "13 nM", "detected": "6 of 6"}
{"CDR-L1": "KSSQSILDESRNKNSIA", "CDR-L2": "TASTRES", "CDR-L3": "QQYHRLPLS", "group": "Ctrl", "apparent Kd": "15 nM", "detected": "6 of 6"}
{"CDR-L1": "QTTAFYQHGYDQNQAMA", "CDR-L2": "DVTMRDQ", "CDR-L3": "QQYERLPLS", "group": "En_Gibbs", "apparent Kd": "17 nM", "detected": "6 of 6"}
{"CDR-L1": "KSAQGVLYESRVKNSVA", "CDR-L2": "GASTRES", "CDR-L3": "QQYHRLPLS", "group": "GP_HC", "apparent Kd": "18 nM", "detected": "6 of 6"}
{"CDR-L1": "KSSQSVLYESRNKNSVA", "CDR-L2": "WASTRES", "CDR-L3": "QQYHHLPLS", "group": "Ctrl", "apparent Kd": "95 nM", "detected": "5 of 6"}
{"CDR-L1": "HITMGMYVHGRHHSSIA", "CDR-L2": "QAETREK", "CDR-L3": "QQYDRLPLI", "group": "En_Gen", "apparent Kd": "130 nM", "detected": "5 of 6"}
{"CDR-L1": "MISQVMNMLTKEGNNVA", "CDR-L2": "DLQEREN", "CDR-L3": "QQYFRLPLS", "group": "En_Gen", "apparent Kd": "140 nM", "detected": "6 of 6"}
{"CDR-L1": "KSQQSVEACSRNKNSVA", "CDR-L2": "AASTRES", "CDR-L3": "QQYHRLPLS", "group": "Ctrl", "apparent Kd": "250 nM", "detected": "5 of 6"}
{"CDR-L1": "KSSQSVLYESRNKNSVA", "CDR-L2": "WASTRTS", "CDR-L3": "QTYHRLPLS", "group": "Ctrl", "apparent Kd": "410 nM", "detected": "2 of 6"}
{"CDR-L1": "MMSQMFEGLSTSKNPVA", "CDR-L2": "QVSTRFE", "CDR-L3": "QQYHRLPLS", "group": "En_HC", "apparent Kd": "460 nM", "detected": "6 of 6"}
{"CDR-L1": "MLTMVADISNKQNNSVA", "CDR-L2": "ELETREN", "CDR-L3": "QQYDRLPLS", "group": "En_Gen", "apparent Kd": "1.6 µM", "detected": "3 of 6"}
{"CDR-L1": "KSSQSVLMESYNKNSVA", "CDR-L2": "WASTGES", "CDR-L3": "QQAHRLPLS", "group": "Ctrl", "apparent Kd": "not detected", "detected": "0 of 6"}

Three control strains display no target. For all light chain designs, 4% of the pairings with them gave a signal, with a median of 430 nM and one signal in twenty below 38 nM, so weak values seen in few replicates may be background. The authors' rule: three or more of the six replicates give a measured affinity, fewer mean a poor binder. A sequence measured in both rounds can read differently, since the two assays cover different ranges.

The measurements come from Li et al. 2023 (doi:10.1038/s41467-023-39022-2) through the FLAb antibody collection.